Literature values in patent publication US20140141090A1, “Pharmaceutical Composition Comprising Opioid Agonist And Sequestered Antagonist” (priority 2011, published 2014).

Settings: in comparison to a 15 mg dose of hydrocodone

In the case of `CN1CC[C@]23c4c5ccc(O)c4O[C@H]2C(=O)CC[C@H]3[C@H]1C5` [hydromorphone], the Equianalgesic dose is given as 3.375 mg.
